In US20110269149A1 (published 2011):
Values belong to the molecule of their own block, whether it stands above or below them.

Amino acid sequences for entries named in this document (tags omitted). Residues count along the entry.
UniProt P01375, 77-233: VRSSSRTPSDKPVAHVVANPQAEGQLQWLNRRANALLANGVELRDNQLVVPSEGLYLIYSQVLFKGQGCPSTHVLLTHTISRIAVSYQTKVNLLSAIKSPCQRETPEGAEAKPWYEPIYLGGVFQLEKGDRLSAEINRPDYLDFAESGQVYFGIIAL

How the values were obtained:
[1] = biological target: infliximab-TNFα complex (UniProt P01375); experiment: QCM, immobilized TNFα; 100 µg/mL C1q plus 100 µg/mL infliximab in PBS (5 µL into 495 µL) against infliximab alone
[2] = biological target: T1, tumor necrosis factor α (TNFα) (UniProt P01375 77-233); experiment: QCM (27 MHz), TNFα immobilized on gold electrode, infliximab in PBS, curve regression with 1:1 binding model
T1 construct: also called TNFα 4

frequency change above infliximab alone [1]: 1000 Hz
Molecule: C1q (from UniProt P02745 23-245; P02746 28-253; P02747 29-245)

B1: infliximab (antibody, V domains shown)
VH: EVKLEESGGGLVQPGGSMKLSCVASGFIFSNHWMNWVRQSPEKGLEWVAEIRSKSINSATHYAESVKGRFTISRDDSKSAVYLQMTDLRTEDTGVYYCSRNYYGSTYDYWGQGTTLTVSS
VL: DILLTQSPAILSVSPGERVSFSCRASQFVGSSIHWYQQRTNGSPRLLIKYASESMSGIPSRFSGSGSGTDFTLSINTVESEDIADYYCQQSHSWPFTFGSGTNLEVKR
Kd [2]: 480 pM
